{"source": "paper PMC8436411", "about": "(ACS Medicinal Chemistry Letters, 2021)", "assay_in_all_cases": "microbe, parasite or virus in culture", "key": {"[1]": {"system": "E. coli N43 (CGSC no. 5583)", "details": "Escherichia coli, read-out: MIC E. coli N43 (CGSC# 5583)"}, "[2]": {"system": "Streptococcus agalactiae RDK 047 (QA-990/02)", "details": "read-out: MIC S. agalactiae RDK 047 (QA-990/02)"}, "MRSA (QA-11.7)": {"system": "MRSA (QA-11.7)", "details": "Staphylococcus aureus, read-out: MIC MRSA (QA-11.7)"}, "MRSA (QA-12.1)": {"system": "MRSA (QA-12.1)", "details": "Staphylococcus aureus, read-out: MIC MRSA (QA-12.1)"}, "E. coli D22": {"system": "E. coli D22", "details": "Escherichia coli, D22, read-out: MIC E. coli D22"}}}
{"smiles": "COc1ccc2nccc(CCN3CCC(NCc4cc(F)c(Br)c(F)c4)CC3)c2n1", "note": "[Compound 8]", "values": [{"measurement": "MIC", "setting": "[1]", "result": 0.016, "unit": "µM"}, {"measurement": "MIC", "setting": "[2]", "result": 0.509, "unit": "µM"}, {"measurement": "MIC", "setting": "MRSA (QA-11.7)", "result": 0.016, "unit": "µg/mL"}, {"measurement": "MIC", "setting": "MRSA (QA-12.1)", "result": 0.016, "unit": "µg/mL"}, {"measurement": "MIC", "setting": "E. coli D22", "result": 0.016, "unit": "µg/mL"}]}
